Measured values taken from patent US9200265B2, “Anti-cocaine compositions and treatment” (priority 2006, dated 2015).

Tested on: cocaine-induced lethality
Test: Rodent model of acute cocaine toxicity (convulsions and lethality) in rats
Conditions: 1 mg i.v. one minute before 180 mg/kg cocaine i.p.

B1: PMSF-treated enzyme: wild-type enzyme covalently modified within the active site by phenylmethyl sulphonate fluoride (PMSF) (protein, UniProt Q9L9D7 1-574, looked up)
Cocaine esterase: MVDGNYSVASNVMVPMRDGVRLAVDLYRPDADGPVPVLLVRNPYDKFDVFAWSTQSTNWLEFVRDGYAVVIQDTRGLFASEGEFVPHVDDEADAEDTLSWILEQAWCDGNVGMFGVSYLGVTQWQAAVSGVGGLKAIAPSMASADLYRAPWYGPGGALSVEALLGWSALIGTGLITSRSDARPEDAADFVQLAAILNDVAGAASVTPLAEQPLLGRLIPWVIDQVVDHPDNDESWQSISLFERLGGLATPALITAGWYDGFVGESLRTFVAVKDNADARLVVGPWSHSNLTGRNADRKFGIAATYPIQEATTMHKAFFDRHLRGETDALAGVPKVRLFVMGIDEWRDETDWPLPDTAYTPFYLGGSGAANTSTGGGTLSTSISGTESADTYLYDPADPVPSLGGTLLFHNGDNGPADQRPIHDRDDVLCYSTEVLTDPVEVTGTVSARLFVSSSAVDTDFTAKLVDVFPDGRAIALCDGIVRMRYRETLVNPTLIEAGEIYEVAIDMLATSNVFLPGHRIMVQVSSSNFPKYDRNSNTGGVIAREQLEEMCTAVNRIHRGPEHPSHIVLPIIKR
modifications: active site covalently modified by PMSF
- protective effect against cocaine (convulsions and lethality): eliminated CocE's protective effect
